Laboratory results published in PubChem BioAssay AID2524 (Sanford-Burnham Center for Chemical Genomics, 2010).
This is a selection; strong and weak results do not stand in their true shares. Activity calls are given as the source filed them.

Amino acid sequences for entries named in this document (tags omitted).
UniProt P09923, whole entry: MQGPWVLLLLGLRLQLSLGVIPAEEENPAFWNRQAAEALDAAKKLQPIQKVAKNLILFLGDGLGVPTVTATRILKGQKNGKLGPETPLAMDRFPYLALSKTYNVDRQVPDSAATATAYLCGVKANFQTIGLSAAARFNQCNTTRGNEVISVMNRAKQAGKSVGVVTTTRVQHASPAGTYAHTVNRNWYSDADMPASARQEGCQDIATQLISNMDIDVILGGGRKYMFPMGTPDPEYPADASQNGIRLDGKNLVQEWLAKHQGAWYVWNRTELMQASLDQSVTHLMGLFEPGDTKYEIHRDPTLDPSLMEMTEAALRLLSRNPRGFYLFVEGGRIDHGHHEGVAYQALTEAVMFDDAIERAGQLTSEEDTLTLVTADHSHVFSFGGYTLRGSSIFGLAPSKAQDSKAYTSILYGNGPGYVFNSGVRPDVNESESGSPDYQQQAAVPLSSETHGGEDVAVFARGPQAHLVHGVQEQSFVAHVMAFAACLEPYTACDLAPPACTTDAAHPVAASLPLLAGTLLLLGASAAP

target: Intestinal-type alkaline phosphatase (Homo sapiens) (UniProt P09923); experiment: human IAP activators, primary screen, biochemical, luminescence, uHTS (AID 2524); conditions: purified human IAP, CDP-Star luminescence, 30 min; at 10 µM; active compounds read high; 1 = vehicle-only enzyme, 0 = enzyme-free background

Compound | activation factor
CC(C)(C)OC(=O)N1CCC(N(C(=O)c2ccccc2)c2ccc(Cl)cc2)CC1 | inactive: 0.886
N#Cc1ccc(C(=O)NCC2(N3CCCCC3)CCCCC2)cc1 | inactive: 1.02
c1ccc(CN2CCC(Nc3ccccc3)CC2)cc1 | inactive: 1.01
CCCN1CCC(Nc2cc(OC)cc(OC)c2)CC1 | inactive: 1.24
CN(C)C1(CNC(=O)c2cccc(C#N)c2)CCCCC1 | inactive: 1.01
O=C(NCC1(N2CCOCC2)CCCCC1)c1cc(Br)ccc1Cl | inactive: 0.961
COc1cc(C(=O)NCC2(N3CCOCC3)CCCCC2)cc(OC)c1C | inactive: 1.05
COc1ccc(C(=O)NCC2(N3CCOCC3)CCCCC2)cc1OC | inactive: 0.938
N/C(=N\O)c1c(N)no[n+]1[O-] | inactive: 0.949
CCOC(=O)N1CCC(Nc2ccc(C)cc2)CC1 | inactive: 1.14
O=C(OC1CN2CCC1CC2)C1c2ccccc2C=Cc2ccccc21 (configuration not stated) | inactive: 0.925
CCc1cc(C(=O)NCC2(N3CCCCC3)CCCCC2)sc1C | inactive: 0.891
CCOc1ncccc1C(=O)NCC1(N2CCOCC2)CCCCC1 | inactive: 0.84
CN1CCC(Nc2ccc(F)c(Cl)c2)CC1 | inactive: 1.19
CCCOc1ccc(C(=O)NCC2(N(C)C)CCCCC2)cc1 | inactive: 0.862
CC(C)(C)OC(=O)N1CCC(Nc2ccccc2)CC1 | inactive: 1.07
O=C(O)C1(Nc2ccccc2)CCN(Cc2ccccc2)CC1 | inactive: 1.14
CCC(CO)(C(=O)OC1CN2CCC1CC2)c1ccccc1 (configuration not stated) | inactive: 1.04
COc1cc(OC)cc(C(=O)NCC2(N3CCOCC3)CCCCC2)c1 | inactive: 1.09
COc1cccc(C(=O)N(c2cc(C)cc(C)c2)C2CCN(C(=O)OC(C)(C)C)CC2)c1 | inactive: 1.2
CCCOc1ccc(C)cc1CN(CCCl)CCCl | inactive: 1.06
CN1CCC(Nc2ccc(Cl)cc2)CC1 | inactive: 1.06
COc1cc(OC)cc(C(=O)NCC2(N3CCCCC3)CCCCC2)c1 | inactive: 1.1

Compound | activation factor
Cc1ccc(C(=O)NCC2(N3CCCCC3)CCCCC2)o1 | inactive: 0.974
Fc1ccccc1NC1CCN(Cc2ccccc2)CC1 | inactive: 1.24
CCN1CCC(Nc2cccc(F)c2)CC1 | inactive: 1.03
O=C(NCC1(N2CCCCC2)CCCCC1)c1ccco1 | inactive: 0.864
CN(C)c1ccc(C(=O)NCC2(N3CCCCC3)CCCCC2)cc1 | inactive: 1.2
CCOc1ccc(C)cc1CN(CCCl)CCCl | inactive: 1.18
O=C(NCC1(N2CCCCC2)CCCCC1)c1ccc(F)cc1 | inactive: 1.02
CCCCOc1ccc(C(=O)NCC2(N3CCOCC3)CCCCC2)cc1 | inactive: 1.16
COc1ccc(NC2CCN(CCc3ccccc3)CC2)c(OC)c1 | inactive: 0.918
CCOC(=O)N1CCC(Nc2ccc(F)cc2)CC1 | inactive: 1.11
CCOC(=O)N1CCC(Nc2cccc(C)c2)CC1 | inactive: 0.979
Cc1ccc(OCC(C)C)c(CN(CCCl)CCCl)c1 | inactive: 0.986
O=C(NCC1(N2CCCCC2)CCCCC1)c1ccc(=O)[nH]c1 | inactive: 0.959
O=C(NCC1(N2CCCCC2)CCCCC1)c1cccs1 | inactive: 0.936
COc1ccc(C(=O)NCC2(N3CCCCC3)CCCCC2)cc1 | inactive: 0.968
COc1ccc(C(=O)NCC2(N3CCCCC3)CCCCC2)c(OC)c1OC | inactive: 1.15
CC(C)(C)OC(=O)N1CCC(N(C(=O)c2ccccc2)c2ccc(F)cc2)CC1 | inactive: 0.938
CSc1ccccc1C(=O)NCC1(N2CCCCC2)CCCCC1 | inactive: 0.987
O=C(NCC1(N2CCOCC2)CCCCC1)c1cc2ccccc2o1 | inactive: 1.11
O=C(NCC1(N2CCCCC2)CCCCC1)c1ccc(Cl)nc1 | inactive: 0.918
Cc1cc(C)cc(N(C(=O)c2ccccc2)C2CCN(C(=O)OC(C)(C)C)CC2)c1 | inactive: 0.888
CCOC(=O)N1CCC(Nc2ccc(OC)cc2)CC1 | inactive: 1.12
O=C(OC1CN2CCC1CC2)C1c2ccccc2Oc2ccccc21 (configuration not stated) | inactive: 0.947

Compound | activation factor
O=C(NCC1(N2CCCCC2)CCCCC1)c1ccc(Cl)s1 | inactive: 0.994
N#CC1(Nc2ccccc2)CCN(Cc2ccccc2)CC1 | inactive: 0.999
COc1ccc(Cl)cc1C(=O)NCC1(N2CCOCC2)CCCCC1 | inactive: 0.925
COc1ccc(CN(CCCl)CCCl)cc1Cl | inactive: 1.12
CN(C)c1cccc(C(=O)NCC2(N3CCCCC3)CCCCC2)c1 | inactive: 1.15
CC(C)c1ccc(NC2CCN(C(=O)OC(C)(C)C)CC2)cc1 | inactive: 1.1
COc1cc(OC)c(C(=O)NCC2(N(C)C)CCCCC2)cc1OC | inactive: 1.09
O=C(NCC1(N2CCOCC2)CCCCC1)c1cc(F)c(F)cc1Cl | inactive: 1.05
O=C(NCC1(N2CCCCC2)CCCCC1)c1cncc(Br)c1 | inactive: 0.952
CN1CCC(Nc2cccc(F)c2)CC1 | inactive: 0.969
O=C(NCC1(N2CCCCC2)CCCCC1)c1ccc(OC(F)F)cc1 | inactive: 1.18
O=C(NCC1(N2CCCCC2)CCCCC1)c1cccc([N+](=O)[O-])c1 | inactive: 0.87
CSc1ccc(C(=O)NCC2(N3CCOCC3)CCCCC2)cc1 | inactive: 1.08
CCN1CCC(Nc2ccc(Cl)cc2)CC1 | inactive: 0.819
N#CC1(Nc2ccccc2)CCN(CCc2ccccc2)CC1 | inactive: 1.09
O=C(NCC1(N2CCCCC2)CCCCC1)c1cccc(C(F)(F)F)c1 | inactive: 1.1
CN1CCN(CCOC(=O)C(O)(c2ccccc2)c2ccccc2)CC1 | inactive: 0.887
COc1ccc(NC2CCN(C(=O)OC(C)(C)C)CC2)cc1 | inactive: 0.965
CC(C)c1ccc(C(=O)NCC2(N3CCOCC3)CCCCC2)cc1 | inactive: 1.16
COc1cc(C(=O)NCC2(N3CCCCC3)CCCCC2)ccc1OC(F)F | inactive: 0.817
O=C(NCC1(N2CCOCC2)CCCCC1)c1cc(=O)[nH]c2ccccc12 | inactive: 1.07
